ChEMBL document CHEMBL1158075, “Brominated cyclodipeptides from the marine sponge Geodia barretti as selective 5-HT ligands” (J Nat Prod, 2006)

Protein sequences, listed by entry. Tags and fused reporters are not part of them. Lines headed by an entry give the natural chain unless they say otherwise; changes in a name come on top.
UniProt P28221: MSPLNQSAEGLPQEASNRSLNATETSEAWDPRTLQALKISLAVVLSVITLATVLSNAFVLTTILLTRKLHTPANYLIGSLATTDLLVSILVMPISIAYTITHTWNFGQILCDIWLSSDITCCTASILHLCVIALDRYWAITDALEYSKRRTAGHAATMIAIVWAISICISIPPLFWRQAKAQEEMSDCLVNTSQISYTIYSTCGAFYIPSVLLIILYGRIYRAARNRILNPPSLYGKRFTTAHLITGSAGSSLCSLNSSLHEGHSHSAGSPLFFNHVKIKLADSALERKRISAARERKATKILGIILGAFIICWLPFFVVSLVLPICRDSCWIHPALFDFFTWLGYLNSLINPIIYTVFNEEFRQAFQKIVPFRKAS

Target: 5-hydroxytryptamine receptor 1D (Homo sapiens, UniProt P28221)
Assay: Displacement of [1,2-3H]5-carboxamidotryptamine from human 5HT1D receptor expressed in HEK293 cells
Format: cell-based

| SMILES | Ki [µM] |
| --- | --- |
| NC(N)=NCCC[C@@H]1NC(=O)[C@H](Cc2c[nH]c3cc(Br)ccc23)NC1=O | > 10 |
| N=C(N)NCCC[C@@H]1NC(=O)/C(=C/c2c[nH]c3cc(Br)ccc23)NC1=O [BARETTIN] | > 10 |
